In PubChem BioAssay AID1224865 (Sanford-Burnham Center for Chemical Genomics, 2016):
The entries are a selection whose mix differs from that of the whole data set. Calls of active or inactive are those of the source. Cut-off read from the data, not from the text of the source: active = activity change above about 30% (passing the limit was not always enough); inactive = the rest.

Protein sequences, listed by entry. Tags and fused reporters are not part of them.
UniProt P41235, whole entry: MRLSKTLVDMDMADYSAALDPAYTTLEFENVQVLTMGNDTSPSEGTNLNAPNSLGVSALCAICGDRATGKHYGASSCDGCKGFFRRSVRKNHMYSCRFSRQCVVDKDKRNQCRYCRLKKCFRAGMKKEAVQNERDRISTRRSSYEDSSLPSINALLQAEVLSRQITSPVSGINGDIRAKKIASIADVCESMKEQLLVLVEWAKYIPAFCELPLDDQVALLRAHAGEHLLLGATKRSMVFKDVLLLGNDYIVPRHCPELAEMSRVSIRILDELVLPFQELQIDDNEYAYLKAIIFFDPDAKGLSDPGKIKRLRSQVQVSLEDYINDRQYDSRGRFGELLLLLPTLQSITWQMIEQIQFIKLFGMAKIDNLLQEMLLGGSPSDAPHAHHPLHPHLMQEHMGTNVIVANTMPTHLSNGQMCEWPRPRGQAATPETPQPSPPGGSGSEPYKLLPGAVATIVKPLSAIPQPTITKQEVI

biological target: Hepatocyte nuclear factor 4-alpha (Homo sapiens) (UniProt P41235); test: HNF4-alpha DNA association modulation – biochemical, fluorescence polarization, FITC-DNA, primary screen (AID 1224865); conditions: HNF4a-FITC DNA binding, 1 h, at 10 µM, stronger effect = higher value

| SMILES | activity change |
| --- | --- |
| CCC(=O)N(c1ccccc1)C1(COC)CCN(CCc2cccs2)CC1 | inactive: 0.24% |
| CCC(=O)N(c1ccccc1)C1(COC)CCN(CCn2nnn(CC)c2=O)CC1 | inactive: 0.79% |
